Assay [1] addresses plasma LPA 18:1 and LPA 18:2 (Homo sapiens, UniProt Q13822). Put plainly: Human plasma ex vivo assay (LPA 18:1 / 18:2 by LC-MS/MS). Type of assay: biochemical.
Assay [2] deals with ATX (Homo sapiens (Human), UniProt Q13822). Put plainly: ATX enzyme inhibition assay (Amplex UltraRed/choline oxidase/HRP, 16:0 Lyso PC substrate). Type of assay: biochemical.
Where [3] appears, read: read-out: Human plasma ex vivo assay IC50 (18:1 LPA) nM, 37° C., 2 hours, LPA 18:1.
The mark [4] stands for this setting: read-out: Human plasma ex vivo assay IC50 (18:2 LPA) nM, 37° C., 2 hours, LPA 18:2.
The mark [5] stands for this setting: read-out: IC50 (nM) pH 8.5, assay buffer pH 8.5.

What is called IC50 is the point on the concentration scale where inhibition reaches its midpoint.

SMILES strings stand for the structures. Read-outs that look alike come from different tables or passages of the source.

`CN(c1nc(C23CC(F)(C2)C3)c(C#N)s1)c1c2c(nc3ccc(N4CCN(CC(=O)N5CC(O)C5)CC4)cc13)CCC2`: the half-maximal inhibitory concentration (IC50) in assay [1] (setting [3]) was determined as 848 nM; in assay [1] (setting [4]), 460 nM.
With `CN(C)C(=O)CN1CCN(c2cc(F)c3nc4c(c(N(C)c5nc(-c6ccc(F)cc6)c(C#N)s5)c3c2)CC4)CC1`, the half-maximal inhibitory concentration (IC50) in assay [2] (setting [5]) was 26.6 nM.
With `CN(c1nc(-c2ccc(F)cc2)c(C#N)s1)c1c2c(nc3ccc(N4CC5(CN(C(=O)[C@@H]6CCOC6)C5)C4)nc13)COC2`, the half-maximal inhibitory concentration (IC50) amounted to 137 nM in assay [1] (setting [3]); 148 nM in assay [1] (setting [4]); 94.1 nM in assay [2] (read-out: IC50 (nM) pH 7.5, assay buffer pH 7.5); 24.5 nM in assay [2] (setting [5]).
